Experimental data taken from ChEMBL document CHEMBL4043131, “New prodrugs of two pyrimidine acyclic nucleoside phosphonates: Synthesis and antiviral activity” (Bioorg Med Chem, 2017).

System: HEL
Experiment: Cytotoxicity against HEL cells assessed as reduction in cell growth after 3 days by coulter counter method
Assay type: cell-based
Settings: human, 72 h
Method in brief: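 HEL cells were seeded at 5 × 10³ cells/well and grown for 24 h, then given medium containing graded compound concentrations. After 3 days at 37 °C, cells were counted by Coulter counter.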

With CCCCCCCCCCCCCCCCNC(=O)[C@@H](N)Cc1ccc(OP(=O)(COCCn2cnc(N)nc2=O)Oc2ccc(C[C@H](N)C(=O)NCCCCCCCCCCCCCCCC)cc2)cc1 the CC50 was 27.1 µM.
